The entries are a selection whose mix differs from that of the whole data set. Activity calls are given as the source filed them.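 How the source made its calls: active means compounds whose plate-normalised and pattern-corrected inhibition of the luciferase reporter signal at the single screening dose is 50% or more; inactive means the rest.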
assay: TROY pathway blockers in reporter cells – Q293 LMP1-TROYcd cells, NF-kB luciferase, uHTS, primary screen (AID 1347056); details: 4 h, at 10 µM, stronger effect = higher value

| Structure (SMILES) | inhibition |
| --- | --- |
| O=c1[nH]c2ccccc2n1C1CCN(C(c2cccs2)c2nnnn2C2CCCCC2)CC1 (stereo not drawn) | inactive: 36.4% |
| COc1ccc(C(=O)NCC2(N3CCOCC3)CCCCC2)cc1OC | inactive: 9.53% |
| O=c1[nH]c2ccccc2n1C1CCN(C(c2ccnc3ccccc23)c2nnnn2C2CCCC2)CC1 (stereo not drawn) | inactive: 13.2% |
| CCCCn1nnnc1C(c1ccccc1)N1CCC(n2c(=O)[nH]c3ccccc32)CC1 (stereo not drawn) | inactive: 22.5% |
| COc1cc(C(=O)NCC2(N3CCOCC3)CCCCC2)cc(OC)c1C | inactive: -13.2% |
| O=C(NCC1(N2CCOCC2)CCCCC1)c1cc(Br)ccc1Cl | inactive: 7.13% |
| O=C(OC1CN2CCC1CC2)C1c2ccccc2C=Cc2ccccc21 (stereo not drawn) | inactive: 1.31% |
| O=c1[nH]c2ccccc2n1C1CCN(C(c2cccs2)c2nnnn2C2CCCC2)CC1 (stereo not drawn) | inactive: 7.69% |
| CCCCn1nnnc1C(c1cccc(OC)c1OC)N1CCC(n2c(=O)[nH]c3ccccc32)CC1 (stereo not drawn) | inactive: 15.7% |
| COc1cccc(C(c2nnnn2C(C)(C)C)N2CCC(n3c(=O)[nH]c4ccccc43)CC2)c1OC (stereo not drawn) | inactive: 12.6% |
| CCOC(=O)N1CCC(Nc2ccc(C)cc2)CC1 | inactive: 5.24% |
| N/C(=N\O)c1c(N)no[n+]1[O-] | inactive: 8.68% |
| N#Cc1ccc(C(=O)NCC2(N3CCCCC3)CCCCC2)cc1 | inactive: -33.8% |
| CC(C)(C)OC(=O)N1CCC(N(C(=O)c2ccccc2)c2ccc(Cl)cc2)CC1 | inactive: -0.46% |
| CC(C)(C)n1nnnc1C(c1cccc2ccccc12)N1CCC(n2c(=O)[nH]c3ccccc32)CC1 (stereo not drawn) | inactive: 49.4% |
| CN(C)C1(CNC(=O)c2cccc(C#N)c2)CCCCC1 | inactive: 0.29% |
| c1ccc(CN2CCC(Nc3ccccc3)CC2)cc1 | inactive: -9.98% |
| O=c1[nH]c2ccccc2n1C1CCN(C(c2ccccc2)c2nnnn2C2CCCC2)CC1 (stereo not drawn) | inactive: 4.43% |
| CCCN1CCC(Nc2cc(OC)cc(OC)c2)CC1 | inactive: 4.34% |
| Cc1cc(N(CCCl)CCCl)ccc1C=O | inactive: 9.36% |
| Cc1ccc(C(=O)NCC2(N3CCCCC3)CCCCC2)o1 | inactive: -16.9% |
| Fc1ccccc1NC1CCN(Cc2ccccc2)CC1 | inactive: 0.87% |

| Structure (SMILES) | inhibition |
| --- | --- |
| Cc1ccc(NC2(C#N)CCN(Cc3ccccc3)CC2)cc1 | inactive: -9.13% |
| CC(=O)N(c1ccccc1)C1CCNCC1 | inactive: 2.78% |
| COc1cccc(C(c2nnnn2C2CCCCC2)N2CCC(n3c(=O)[nH]c4ccccc43)CC2)c1OC (stereo not drawn) | inactive: 30.7% |
| CCC(c1nnnn1C1CCCCC1)N1CCC(n2c(=O)[nH]c3ccccc32)CC1 (stereo not drawn) | inactive: 8.59% |
| O=c1[nH]c2ccccc2n1C1CCN(C(c2ccnc3ccccc23)c2nnnn2C2CCCCC2)CC1 (stereo not drawn) | inactive: 13.6% |
| COc1cc(OC)cc(C(=O)NCC2(N3CCCCC3)CCCCC2)c1 | inactive: 5.8% |
| O=C(NCC1(N2CCCCC2)CCCCC1)c1ccco1 | inactive: -2.29% |
| Cn1c(=O)[nH]cc(N(CCCl)CCCl)c1=O | inactive: -12.8% |
| CN(C)c1ccc(C(=O)NCC2(N3CCCCC3)CCCCC2)cc1 | inactive: -16.8% |
| Cc1ccccc1NC1(C#N)CCN(Cc2ccccc2)CC1 | inactive: -3.84% |
| CC(C)(C)n1nnnc1C(c1ccnc2ccccc12)N1CCC(n2c(=O)[nH]c3ccccc32)CC1 (stereo not drawn) | inactive: -7.72% |
| COc1ccc(C(c2nnnn2C2CCCCC2)N2CCC(n3c(=O)[nH]c4ccccc43)CC2)cc1 (stereo not drawn) | inactive: 32.9% |
| CCN1CCC(Nc2cccc(F)c2)CC1 | inactive: -6.8% |
| CC(C)(C)OC(=O)N1CCC(Nc2ccccc2)CC1 | inactive: 0.43% |
| NN(c1ccccc1)C1CCN(CCc2ccccc2)CC1 | inactive: -20.1% |
| O=C(O)C1(Nc2ccccc2)CCN(Cc2ccccc2)CC1 | inactive: -28.6% |
| CCCOc1ccc(C(=O)NCC2(N(C)C)CCCCC2)cc1 | inactive: -19.9% |
| O=c1[nH]c2ccccc2n1C1CCN(C(c2cc3ccccc3o2)c2nnnn2C2CCCC2)CC1 (stereo not drawn) | inactive: 24.5% |
| CCOc1ncccc1C(=O)NCC1(N2CCOCC2)CCCCC1 | inactive: -15.8% |
| CN1CCC(Nc2ccc(F)c(Cl)c2)CC1 | inactive: 3.8% |
| CN1CCC(Nc2ccc(Cl)cc2)CC1 | inactive: 11.8% |
| COc1cccc(C(=O)N(c2cc(C)cc(C)c2)C2CCN(C(=O)OC(C)(C)C)CC2)c1 | inactive: 2.2% |

| Structure (SMILES) | inhibition |
| --- | --- |
| COc1cccc(C(c2nnnn2C2CCCC2)N2CCC(n3c(=O)[nH]c4ccccc43)CC2)c1OC (stereo not drawn) | inactive: 4.99% |
| COc1cc(OC)cc(C(=O)NCC2(N3CCOCC3)CCCCC2)c1 | inactive: 21.8% |
| CCC(CO)(C(=O)OC1CN2CCC1CC2)c1ccccc1 (stereo not drawn) | inactive: -6.91% |
| CSc1ccccc1C(=O)NCC1(N2CCCCC2)CCCCC1 | inactive: -8.06% |
| Cc1cccc(NC2(C#N)CCN(Cc3ccccc3)CC2)c1 | inactive: 5.29% |
| COc1ccc(C(=O)NCC2(N3CCCCC3)CCCCC2)cc1 | inactive: 0.66% |
| CCC(c1nnnn1C1CCCC1)N1CCC(n2c(=O)[nH]c3ccccc32)CC1 (stereo not drawn) | inactive: -7.28% |
| COc1ccc(C(=O)NCC2(N3CCCCC3)CCCCC2)c(OC)c1OC | inactive: 9.83% |
| CC(C)(C)OC(=O)N1CCC(N(C(=O)c2ccccc2)c2ccc(F)cc2)CC1 | inactive: -0.97% |
| O=C(NCC1(N2CCCCC2)CCCCC1)c1ccc(=O)[nH]c1 | inactive: -13.5% |
| CCCCn1nnnc1C(c1cccs1)N1CCC(n2c(=O)[nH]c3ccccc32)CC1 (stereo not drawn) | inactive: 12% |
| CCCCn1nnnc1C(CC)N1CCC(n2c(=O)[nH]c3ccccc32)CC1 (stereo not drawn) | inactive: 7.63% |
| O=C(NCC1(N2CCCCC2)CCCCC1)c1cccs1 | inactive: 6.85% |
| O=c1[nH]c2ccccc2n1C1CCN(C(c2cc3ccccc3o2)c2nnnn2C2CCCCC2)CC1 (stereo not drawn) | inactive: 47.7% |
| O=C(OC1CN2CCC1CC2)C1c2ccccc2Oc2ccccc21 (stereo not drawn) | inactive: 13.8% |
| N#CC1(Nc2ccccc2)CCN(Cc2ccccc2)CC1 | inactive: -15.7% |
| O=C(NCC1(N2CCCCC2)CCCCC1)c1ccc(Cl)s1 | inactive: -27.9% |
| COc1ccc(Cl)cc1C(=O)NCC1(N2CCOCC2)CCCCC1 | inactive: -5.82% |
| CCOC(=O)N1CCC(Nc2ccc(OC)cc2)CC1 | inactive: 0.43% |
| CCCCn1nnnc1C(c1ccc(OC)cc1)N1CCC(n2c(=O)[nH]c3ccccc32)CC1 (stereo not drawn) | inactive: 19% |
| O=c1[nH]c2ccccc2n1C1CCN(C(c2ccccc2OC(F)(F)F)c2nnnn2C2CCCCC2)CC1 (stereo not drawn) | inactive: 16.6% |
| O=C(NCC1(N2CCCCC2)CCCCC1)c1ccc(Cl)nc1 | inactive: -0.6% |

| Structure (SMILES) | inhibition |
| --- | --- |
| Cc1cc(C)cc(N(C(=O)c2ccccc2)C2CCN(C(=O)OC(C)(C)C)CC2)c1 | inactive: 6.33% |
| O=C(NCC1(N2CCOCC2)CCCCC1)c1cc2ccccc2o1 | inactive: 11.9% |
| O=C(NCC1(N2CCCCC2)CCCCC1)c1ccc(F)cc1 | inactive: 1.71% |
| CCCCOc1ccc(C(=O)NCC2(N3CCOCC3)CCCCC2)cc1 | inactive: -39.3% |
| O=P1(N(CCCl)CCCl)SCCCS1 | inactive: 18.3% |
| CCCCn1nnnc1C(c1cc2ccccc2o1)N1CCC(n2c(=O)[nH]c3ccccc32)CC1 (stereo not drawn) | inactive: 29.2% |
| CCOC(=O)N1CCC(Nc2ccc(F)cc2)CC1 | inactive: 11.5% |
| COc1ccc(NC2CCN(CCc3ccccc3)CC2)c(OC)c1 | inactive: -17.5% |
| CC(C)(C)n1nnnc1C(c1ccccc1)N1CCC(n2c(=O)[nH]c3ccccc32)CC1 (stereo not drawn) | inactive: -3.82% |
| O=C1CCN(Cc2ccccc2)CC1 | inactive: 1.67% |
| CCOc1ccc(C)cc1CN(CCCl)CCCl | inactive: 0.99% |
| COc1cc(C(=O)NCC2(N(C)C)CCCCC2)ccc1OC(F)F | inactive: 8.12% |
| CCOC(=O)N1CCC(Nc2cccc(C)c2)CC1 | inactive: 13.6% |
| O=c1[nH]c2ccccc2n1C1CCN(C(c2cccc3ccccc23)c2nnnn2C2CCCC2)CC1 (stereo not drawn) | inactive: -7% |
| O=c1[nH]c2ccccc2n1C1CCN(C(c2ccccc2)c2nnnn2C2CCCCC2)CC1 (stereo not drawn) | inactive: 19.2% |
| CCN1CCC(Nc2ccc(Cl)cc2)CC1 | inactive: 2.05% |
| N#CC1(Nc2ccccc2)CCN(CCc2ccccc2)CC1 | inactive: -14.5% |
| O=c1[nH]c2ccccc2n1C1CCN(C(c2ccccc2OC(F)(F)F)c2nnnn2C2CCCC2)CC1 (stereo not drawn) | inactive: -10.4% |
| CSc1ccc(C(=O)NCC2(N3CCOCC3)CCCCC2)cc1 | inactive: -2.52% |
| O=C(NCC1(N2CCCCC2)CCCCC1)c1cccc([N+](=O)[O-])c1 | inactive: 14.5% |
| CC(C)(C)n1nnnc1C(c1ccccc1OC(F)(F)F)N1CCC(n2c(=O)[nH]c3ccccc32)CC1 (stereo not drawn) | inactive: 10.5% |
| O=C(NCC1(N2CCCCC2)CCCCC1)c1ccc(OC(F)F)cc1 | inactive: 20.6% |

| Structure (SMILES) | inhibition |
| --- | --- |
| O=C(NCC1(N2CCOCC2)CCCCC1)c1cc(=O)[nH]c2ccccc12 | inactive: -2.15% |
| COc1cc(C(=O)NCC2(N3CCCCC3)CCCCC2)ccc1OC(F)F | inactive: -8.52% |
| CCCCn1nnnc1C(c1cccc2ccccc12)N1CCC(n2c(=O)[nH]c3ccccc32)CC1 (stereo not drawn) | inactive: 18.1% |
| COc1ccc(NC2CCN(C(=O)OC(C)(C)C)CC2)cc1 | inactive: 1.26% |
| CC(C)c1ccc(C(=O)NCC2(N3CCOCC3)CCCCC2)cc1 | inactive: -6.68% |
| CN1CCN(CCOC(=O)C(O)(c2ccccc2)c2ccccc2)CC1 | inactive: 7.8% |
| O=C(NCC1(N2CCCCC2)CCCCC1)c1cccc(C(F)(F)F)c1 | inactive: 11.2% |
| COc1cc(OC)c(C(=O)NCC2(N(C)C)CCCCC2)cc1OC | inactive: 8.79% |
| O=C(NCC1(N2CCOCC2)CCCCC1)c1cc(F)c(F)cc1Cl | inactive: -2.53% |
| CCC(c1nnnn1C(C)(C)C)N1CCC(n2c(=O)[nH]c3ccccc32)CC1 (stereo not drawn) | inactive: -8.58% |
| CCCCn1nnnc1C(c1ccnc2ccccc12)N1CCC(n2c(=O)[nH]c3ccccc32)CC1 (stereo not drawn) | inactive: 17.3% |
| CC(C)c1ccc(NC2CCN(C(=O)OC(C)(C)C)CC2)cc1 | inactive: 5.92% |
| CCCCn1nnnc1C(c1ccccc1OC(F)(F)F)N1CCC(n2c(=O)[nH]c3ccccc32)CC1 (stereo not drawn) | inactive: 26.1% |
| COc1ccc(CN(CCCl)CCCl)cc1Cl | inactive: -17.6% |
| CN(C)c1cccc(C(=O)NCC2(N3CCCCC3)CCCCC2)c1 | inactive: -6.51% |
| COc1ccc(C(c2nnnn2C2CCCC2)N2CCC(n3c(=O)[nH]c4ccccc43)CC2)cc1 (stereo not drawn) | inactive: -1.91% |
| Cc1ccc(C(=O)NCC2(N(C)C)CCCCC2)o1 | inactive: -5.72% |
| CCCOc1ccc(C(=O)NCC2(N(C)C)CCCCC2)cc1OC | inactive: -3.32% |
| O=C(NCC1(N2CCCCC2)CCCCC1)c1cncc(Br)c1 | inactive: 11.6% |
| CN1CCC(Nc2cccc(F)c2)CC1 | inactive: -0.78% |

From PubChem BioAssay AID1347056 (Sanford-Burnham Center for Chemical Genomics, 2019)
